Measurements published in US20190233825A1, “METHODS OF MODULATING CYTOSOLIC DNA SURVEILLANCE MOLECULES” (BAYER ANIMAL HEALTH GMBH, priority 2015, published 2019).

System: STING
Assay: SEAP reporter assay in B16-Blue ISG-KO-STING cells
Type: cell-based, murine
Settings: FIG. 26

B1: IFN-β: interferon-β, cytokine used to validate the cell lines (protein, UniProt P01574 22-187, looked up)
Interferon beta: MSYNLLGFLQRSSNFQCQKLLWQLNGRLEYCLKDRMNFDIPEEIKQLQQFQKEDAALTIYEMLQNIFAIFRQDSSSTGWNETIVENLLANVYHQINHLKTVLEEKLEKEDFTRGKLMSSLHLKRYYGRILHYLKAKEYSHCAWTIVRVEILRNFYFINRLTGYLRN
signal (interferon-response element readout): not be affected by deletion of the STING gene
